Measured values from EP4670733A1, “METHODS FOR PREPARING VIRAL PROTEINS AND USES THEREOF” (priority 2024, dated 2025).

System: A/H1N1/Michigan/45/15 X-275 (H1N1) virus strain
Assay: Particle size by dynamic light scattering (DLS)
Type: physicochemical, influenza virus
Conditions: Sample E2, compared to the No Detergent control; FIG. 2A-2F

Question: With `CCCCCCCCCCCC[N+](C)(C)[O-]` [LDAO] as the molecule, how does the particle size distribution read?
Answer: reduced the particle size distribution after splitting

Question: For `CCCCCCCCCCCCCC[N+](C)(C)[O-]` [TDAO], which particle size distribution is on record?
Answer: reduced the particle size distribution after splitting
